The results in this text go back to patent US20130281497A1, “MACROCYCLIC COMPOUNDS AND METHODS OF TREATMENT” (University of Florida Research Foundation, Inc., priority 2010, published 2013).

Marks after values point to notes of the source that are not given here.

This test has as its system C2C12 cells. The test is described as follows: mRNA induction of osteoblastogenesis markers and BMPs by quantitative real-time PCR. The format is cell-based. Particulars: rhBMP-2 300 ng/ml (reference inducer), mean ± SD. As to the method: Primers were designed using an on-line primer design program (Table 1). (S. Rozen, H. J. Skaletsky, Methods Mol. Biol. 2000, 132, 365-386.) Total RNA was isolated using TRIzol reagent (Life Technologies, MD) according to manufacturer's protocol. The concentration and purity of total RNA were calculated by measuring absorbance at 260 and 280 nm. First strand cDNA was synthesized using 2 μg of total RNA and 1 μM of oligo-dT18 primer and Omniscript Reverse Transcriptase (Qiagen, CA). SYBR green-based quantitative PCR was performed using the Stratagene Mx3000P Real-Time PCR system and Brilliant SYBR Green Master Mix (Stratagene, CA) with 3 μl of first-strand cDNA diluted 1:50 and 20 pmole of primers, according to the manufacturer's protocols. The PCR reaction consisted of three segments. The first segment (95° C. for 10 min) activated the polymerase; the second segment included 3-step cycling (40 cycles) at 94° C. for 40 sec (denaturation), 60° C. for 40 sec (annealing), and 72° C. for 1 min (extension); the third segment was performed to generate PCR product temperature dissociation curves (‘melting curves’) at 95° C. for 1 min, 55° C. for 30 sec, 95° C. for 30 sec. All reactions were run in triplicate, and data were analyzed by the 2^−ΔΔCT method (K. J. Livak, T. D. Schmittgen, Methods 2001, 25, 402-408.). GAPDH was used as the control gene. Significance was determined by Student's t-test with GAPDH-normalized 2^−ΔΔCT values. Differences were considered significant when P<0.05.

Turning to “rhBMP-2: rhBMP-2 (300 ng/ml) was used as the reference of osteoblastogenesis inducer”, the “ALP mRNA level, fold change relative to the control” value is reported as 11.12 ± 0.00^c fold; the “BMP-2 mRNA level, fold change relative to the control” value was 1.45 ± 0.27^a fold; the “BMP-4 mRNA level, fold change relative to the control” value amounted to 1.04 ± 0.37 fold; the “BMP-6 mRNA level, fold change relative to the control” value was found to be 1.42 ± 0.35 fold. For the same substance, the “BMP-7 mRNA level, fold change relative to the control” value is listed as 2.85 ± 0.67^b fold; the “BMP-9 mRNA level, fold change relative to the control” value is 2.00 ± 0.59^a fold; the “OPN mRNA level, fold change relative to the control” value is reported as 2.35 ± 0.41^a fold; the “RUNX2 mRNA level, fold change relative to the control” value is 2.18 ± 0.48^a fold.
